This note sets out measurements from patent US10030016B2 (Sunesis Pharmaceuticals, Inc., priority 2009, dated 2018).

Sequences of proteins named here, by UniProt entry; tags and fusion partners are left off. Residues count along the entry.
UniProt O15530, 51-359: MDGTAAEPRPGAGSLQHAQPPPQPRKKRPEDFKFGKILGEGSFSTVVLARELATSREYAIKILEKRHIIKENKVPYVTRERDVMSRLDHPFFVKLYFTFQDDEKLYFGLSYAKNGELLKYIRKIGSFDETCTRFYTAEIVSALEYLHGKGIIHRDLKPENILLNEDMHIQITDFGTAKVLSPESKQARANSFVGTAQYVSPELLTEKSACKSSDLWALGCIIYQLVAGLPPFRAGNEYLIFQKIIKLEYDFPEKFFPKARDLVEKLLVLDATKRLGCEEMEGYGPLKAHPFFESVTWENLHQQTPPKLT

The subject of assay [1] is phospho-akt (Thr308) in PC-3 cells. Kind of assay: Inhibition of phospho-akt (Thr308) in PC-3 cells, MSD phospho-akt 308 ELISA kit. The format is cell-based. As to conditions: Homo sapiens, PC-3, 2 h. On the procedure: PC-3 cells were harvested by trypsin and counted. Cells were plated in coated 96-well flat bottom plates (plate 15,000 cells/well in 100 ul growth media (10% FBS, 1× pen-strep) an place in an incubator overnight.
Subject inhibitors were stocked at 50 mM, then diluted to 30 mM (4.8 μl cpd plus […] DMSO) in 100% DMSO. Three-fold dilutions were performed from 30 mM stock. (4 μl into 8 ul 100% DMSO). Aliquots of 1.0 μl of inhibitor solution were transferred into SF Medium (using deep well block).
Control wells were prepared as follows. For DMSO high controls, 1.0 μl of 100% DMSO was added into 1.0 ml SF. For low controls for PC-3 cells, 5 μM of Wortmannin (10 μl of 1 mM Wortmannin stock was added into 2 ml SF Medium. The supernatant media was removed and the plate was blotted. 100 μl of controls/media or compound/media were added to cells and placed in incubator for 2 hours. The supernatant media was removed and the plate was blotted. 55 μl of the MSD complete lysis buffer was added (10 mls Tris Lysis buffer, 200 ul protease inhibitor, 100 ul phosphatase inhibitor 1, and 100 ul phosphatase inhibitor II). The plate was placed on a plate shaker for 60 mins at 4 deg. […]
25 μl of Ab detection solution was added to each well. […] 150 μl of Read Buffer was added (5 mls 4×MSD Read Buffer+15 mls water). Finally the plate was read immediately on the MSD plate reader.

A further assay addresses PDK1 (Homo sapiens (Human), UniProt O15530). Kind of assay: PDK1 kinase assay (coupled PDK1/AKT/FAM-crosstide assay, IMAP fluorescence polarization). The format is biochemical. On the procedure: A PDK1 kinase assay was performed as follows. PDK1 (amino acids 51-359) and AKT2 (amino acids 140-467 fused to PIFtide, amino acids […]) were expressed as N-terminally tagged GST fusion proteins in insect cells and purified to homogeneity. Enzyme activity was determined in a coupled PDK1/AKT/FAM-crosstide assay and phosphorylation of FAM-crosstide was determined by standard IMAP protocol (Molecular Devices). For inhibition studies, compounds were titrated 4-fold in DMSO and diluted 40-fold into assay buffer (10 mM Tris HCl pH7.2; 10 mM MgCl2; 0.01% Triton X-100; 1 mM DTT) containing PDK1, AKT2, and FAM-crosstide (final concentrations: 0.75 nM PDK1, 10 nM unphosphorylated AKT2, and 100 nM crosstide substrate). The kinase reaction was initiated by adding ATP to a final concentration of 40 μM of PDK1 and incubated at 25° C. for 30 min. To detect assay product, the kinase reaction was combined with Progressive Binding Solution (1:600 Progressive Binding Reagent, 50% Buffer A, 50% Buffer B, Molecular Devices) in a 1:3 ratio. […] The fluorescence polarization value “P” is defined by the equation below. […]
Where “par” is fluorescence intensity parallel to the excitation plane; and “perp” is fluorescence intensity perpendicular to the excitation plane. ΔmP values were plotted as a function of compound concentration and the data were analyzed with a 4-parameter fit using GraphPad Prism software.

Each structure is given as a SMILES string. Counter-ions that a name gives are not always drawn.

The molecule `COc1cc(NC(=O)c2cccnc2NCc2ccc(-c3ccc4ncnc(N)c4c3)s2)ccc1F` [Example 3.54, 2-({[5-(4-aminoquinazolin-6-yl)thiophen-2-yl]methyl}amino)-N-(4-fluoro-3-methoxyphenyl) pyridine-3-carboxamide (TFA salt)] registered an EC50 in assay [1] above 10 µM. At PDK1, this molecule gave an IC50 of 1 to 5 µM.
